{"sequences": {"note": "Sequences of proteins named here, by UniProt entry; tags and fusion partners are left off. Residues count along the entry.", "UniProt P20062, 19-427 limits assumed": "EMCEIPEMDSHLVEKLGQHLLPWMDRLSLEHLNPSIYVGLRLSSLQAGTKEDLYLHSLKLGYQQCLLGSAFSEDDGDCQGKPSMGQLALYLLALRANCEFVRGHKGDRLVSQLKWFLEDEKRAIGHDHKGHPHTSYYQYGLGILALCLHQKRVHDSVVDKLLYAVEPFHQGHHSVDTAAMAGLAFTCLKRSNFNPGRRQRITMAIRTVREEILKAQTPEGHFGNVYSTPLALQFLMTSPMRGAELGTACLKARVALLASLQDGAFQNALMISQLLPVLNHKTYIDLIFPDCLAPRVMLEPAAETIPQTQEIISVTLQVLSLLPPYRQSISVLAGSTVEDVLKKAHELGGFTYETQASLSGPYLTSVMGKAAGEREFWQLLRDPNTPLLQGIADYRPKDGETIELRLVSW"}, "source": "patent US5840712A", "about": "“Water soluble vitamin B12 receptor modulating agents and methods related thereto” (Receptagen Corporation, priority 1995, dated 1998)", "target": "recombinant transcobalamin II (Homo sapiens, UniProt P20062)", "test": "Competitive binding assay of vitamin B12 derivatives to TcII versus radiolabeled B12", "settings": "immobilized TcII, constant radiolabeled B12, 20 minutes at 37° C., picomolar concentrations", "protocol": "Binding of the vitamin B12 derivatives to recombinant transcobalamin II was conducted in picomolar concentrations and the percent bound ascertained.\nIn this competitive binding assay, various B12 derivatives, including vitamin B12 receptor modulating agents, were evaluated for their ability to bind to TcII relative to radiolabeled B12. Varying concentrations of each derivative were incubated with immobilized TcII in the presence of a constant amount of radiolabeled B12. After incubation for 20 minutes at 37° C., the free radiolabeled B12 was separated from the TcII bound tracer by removal of the supernatant. The radioactivity of the supernatant solution was then measured to determine the amount of free radiolabeled B12 present at the end of each competition. By measuring the amount of free radiolabeled B12 for each competition, the ability of each derivative to inhibit radiolabeled B12 binding was determined. A binding curve was then be constructed for each B12 derivative where the amount of radiolabeled B12 bound (% radiolabel bound) was correlated with the concentration of derivative present in the original mixture.", "note": "Only a part of the results on these compounds is given; other tests are left out.", "data": [{"substance": "Cobalamin e-monocarboxylic acid conj Diaminododecane", "values": [{"measurement": "binding to TcII (ability to inhibit radiolabeled B12 binding), described in words from binding curve", "value": "not likely to bind TcII"}]}]}
